Data as given in article PMC10933966, “In Vitro and In Silico of Cholinesterases Inhibition and In Vitro and In Vivo Anti-Melanoma Activity Investigations of Extracts Obtained from Selected Berberis Species” (Molecules, 2024).

Protein sequences, listed by entry. Tags and fused reporters are not part of them. Residues count along the entry.
UniProt P22303, 32-614, species assumed: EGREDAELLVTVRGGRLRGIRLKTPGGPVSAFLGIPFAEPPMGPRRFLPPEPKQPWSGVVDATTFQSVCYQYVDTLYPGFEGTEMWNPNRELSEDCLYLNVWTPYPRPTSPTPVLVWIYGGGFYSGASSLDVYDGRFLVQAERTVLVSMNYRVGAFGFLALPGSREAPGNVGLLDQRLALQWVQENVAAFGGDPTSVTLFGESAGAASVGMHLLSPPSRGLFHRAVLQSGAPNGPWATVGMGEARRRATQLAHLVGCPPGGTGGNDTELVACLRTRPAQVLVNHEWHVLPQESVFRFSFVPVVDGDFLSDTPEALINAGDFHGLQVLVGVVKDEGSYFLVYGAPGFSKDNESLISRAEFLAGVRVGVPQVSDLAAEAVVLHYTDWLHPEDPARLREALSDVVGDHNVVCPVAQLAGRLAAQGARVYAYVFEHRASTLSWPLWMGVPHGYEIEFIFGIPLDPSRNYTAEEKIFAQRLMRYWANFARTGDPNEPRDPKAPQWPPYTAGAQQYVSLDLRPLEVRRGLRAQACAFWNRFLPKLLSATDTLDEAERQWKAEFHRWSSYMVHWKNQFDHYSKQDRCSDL
UniProt P06276, 29-602: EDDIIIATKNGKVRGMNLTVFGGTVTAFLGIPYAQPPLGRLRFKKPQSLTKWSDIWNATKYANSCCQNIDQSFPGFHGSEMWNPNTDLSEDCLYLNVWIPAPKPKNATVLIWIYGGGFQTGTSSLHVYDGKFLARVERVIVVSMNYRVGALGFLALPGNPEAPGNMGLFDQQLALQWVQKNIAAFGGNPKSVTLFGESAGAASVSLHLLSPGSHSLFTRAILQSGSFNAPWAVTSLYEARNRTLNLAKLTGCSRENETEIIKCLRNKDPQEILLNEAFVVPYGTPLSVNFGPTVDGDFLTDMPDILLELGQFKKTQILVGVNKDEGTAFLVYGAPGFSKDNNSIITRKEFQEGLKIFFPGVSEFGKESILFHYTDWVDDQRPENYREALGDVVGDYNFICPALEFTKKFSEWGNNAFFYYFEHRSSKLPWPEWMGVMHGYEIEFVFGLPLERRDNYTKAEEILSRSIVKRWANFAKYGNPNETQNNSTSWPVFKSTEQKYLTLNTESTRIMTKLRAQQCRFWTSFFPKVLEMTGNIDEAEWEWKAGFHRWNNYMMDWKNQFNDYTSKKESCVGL

Experiments:
acetylcholinesterase [1] = target: T1, acetylcholinesterase (Homo sapiens, UniProt P22303); experiment: biochemical; details: IC50 Values Acetylcholinesterase
T1 construct: purchased Sigma-Aldrich (St. Louis, MO, USA)
Procedure: (§1) All experiments were repeated three times.
S1. Samples preparation for determination of acetylcholinesterase inhibitory activity A stock solutions of reagents were prepared by dissolving of acetylcholinesterase at con-centrations 200 U/mL or 2 U/mL, acetylthiocholine iodide at concentration 0.0125 M and 5′- dithiobis-(2-nitrobenzoic acid) at concentration 0.00167 M in phosphate buffer at pH 7.8.
Samples for determination of acetylcholinesterase inhibitory activity were obtained by mixing of 50 µL of acetylthiocholine iodide, 50 µL of 5′-dithiobis-(2-nitrobenzoic acid), 50 µL of […]
as §1
All experiments were performed in triplicates.

acetylcholinesterase [2] = target: T1, acetylcholinesterase; experiment: Kinetic study of acetylcholinesterase inhibition (Lineweaver-Burk plots and replots); format: biochemical; details: replot of Lineweaver-Burk slopes vs inhibitor concentration; substrate acetylthiocholine iodide
Procedure: Lineweaver–Burk and Dixon plots were used for the determination of the type of inhibition and inhibition constants (Ki value) of these alkaloids. […] The Ki value was estimated from the replots of the slope of the individual Lineweaver–Burk plots versus the inhibitor concentrations (Figure 5B). […] The type of acetylcholinesterase inhibition and Ki value was determined for palmatine by the same method.

acetylcholinesterase [3] = target: T1, acetylcholinesterase; details: cited from earlier work
butyrylcholinesterase = target: T2, butyrylcholinesterase (Homo sapiens, UniProt P06276); experiment: Butyrylcholinesterase inhibition, Ellman method with HPLC-DAD; format: biochemical; details: alkaloid standards; 15 min at 37 °C, pH 7.8
T2 construct: purchased Sigma-Aldrich (St. Louis, MO, USA)

## COc1ccc2cc3[n+](cc2c1OC)CCc1cc2c(cc1-3)OCO2 [Berberine, berberine]
Acetylcholinesterase [1]
  IC50: 2040 nM and 2050 nM
Acetylcholinesterase [2]
  Ki: 1400 nM
Acetylcholinesterase [3]
  IC50: 6540 nM

## CCN(C)C(=O)Oc1cccc([C@H](C)N(C)C)c1 [Rivastigmine, rivastigmine]
butyrylcholinesterase
  IC50 Values Butyrylcholinesterase: 2.10 µg/mL (≈ 8.39 µM)

Converted amounts (≈) assume the structure as drawn. “And” between values parts separate entries of the source, which are not always exact repeats. Equal values may be shown once. Read-outs that look alike come from different tables or passages of the source.
